Data taken from BindingDB's records for 11960499.

By UniProt entry, the sequences of proteins in these tests, tags left out. Residues count along the entry.
UniProt P02768, 25-609 limits assumed: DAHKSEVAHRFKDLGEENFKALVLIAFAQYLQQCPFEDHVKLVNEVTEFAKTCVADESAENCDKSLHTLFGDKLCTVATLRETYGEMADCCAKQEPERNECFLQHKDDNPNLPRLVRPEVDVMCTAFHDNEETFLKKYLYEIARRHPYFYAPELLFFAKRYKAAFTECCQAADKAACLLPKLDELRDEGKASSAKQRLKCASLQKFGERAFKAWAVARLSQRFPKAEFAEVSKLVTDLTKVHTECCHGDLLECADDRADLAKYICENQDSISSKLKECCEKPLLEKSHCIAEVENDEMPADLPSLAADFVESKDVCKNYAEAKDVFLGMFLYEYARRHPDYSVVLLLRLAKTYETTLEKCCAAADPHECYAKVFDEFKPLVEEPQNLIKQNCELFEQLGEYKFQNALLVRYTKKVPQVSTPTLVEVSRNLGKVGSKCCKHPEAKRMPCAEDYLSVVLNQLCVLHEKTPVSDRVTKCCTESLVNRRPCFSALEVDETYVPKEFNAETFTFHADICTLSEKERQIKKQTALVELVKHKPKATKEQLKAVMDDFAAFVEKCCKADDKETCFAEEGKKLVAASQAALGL

Molecular target: Albumin (Homo sapiens, UniProt P02768)
Assay: Inhibitory concentration bound to tryptophan containing region of Serum albumin in fluorescence quenching

SMILES: [N-]=[N+]=NC(F)(F)C(Cl)Br (stereo unspecified)
- IC50: 300 µM
